Article PMC9631991 (Biochemistry, 2022)

B1: ATG4b-382 (domain or fragment)
chain: MDAATLTYDTLRFAEFEDFPETSEPVWILGRKYSIFTEKDEILSDVASRLWFTYRKNFPAIGGTGPTSDTGWGCMLRCGQMIFAQALVCRHLGRDWRWTQRKRQPDSYFSVLNAFIDRKDSYYSIHQIAQMGVGEGKSIGQWYGPNTVAQVLKKLAVFDTWSSLAVHIAMDNTVVMEEIRRLCRTSVPCAGATAFPADSDRHCNGFPAGAEVTNRPSPWRPLVLLIPLRLGLTDINEAYVETLKHCFMMPQSLGVIGGKPNSAHYFIGYVGEELIYLDPHTTQPAVEPTDGCFIPDESFHCQHPPCRMSIAELDPSIAVGFFCKTEDDFNDWCQQVKKLSLLGGALPMFELVELQPSHLACPDVLNLSLDSSDVERLERFFD
B2: ATG4b WT (full-length ATG4b) (enzyme)
chain: MDAATLTYDTLRFAEFEDFPETSEPVWILGRKYSIFTEKDEILSDVASRLWFTYRKNFPAIGGTGPTSDTGWGCMLRCGQMIFAQALVCRHLGRDWRWTQRKRQPDSYFSVLNAFIDRKDSYYSIHQIAQMGVGEGKSIGQWYGPNTVAQVLKKLAVFDTWSSLAVHIAMDNTVVMEEIRRLCRTSVPCAGATAFPADSDRHCNGFPAGAEVTNRPSPWRPLVLLIPLRLGLTDINEAYVETLKHCFMMPQSLGVIGGKPNSAHYFIGYVGEELIYLDPHTTQPAVEPTDGCFIPDESFHCQHPPCRMSIAELDPSIAVGFFCKTEDDFNDWCQQVKKLSLLGGALPMFELVELQPSHLACPDVLNLSLDSSDVERLERFFDSEDEDFEILSL

Key:
[1] = target: pro-LC3B (residues 1-125) (human, UniProt Q9GZQ8 1-120); assay: cell-based or functional assay
[2] = target: LC3B-115 (residues 1-115) (human, UniProt Q9GZQ8 1-115); assay: ITC; 25 °C; 20 mM HEPES pH 7.5, 200 mM NaCl, 0.5 mM TCEP; 10~68 uM LC3B proteins in the cell, 10-fold higher concentration of ATG4b in the syringe; single-site binding model; details: both partners purified

| Binder | fold decrease in KM of cleavage of the FRET substrate CFP-proLC3B-YFP, fold against ATG4b WT [1] [fold] | Kd [2] [nM] |
| --- | --- | --- |
| B1 | 2.8 |  |
| B2 |  | 143 |
